The text below walks through data of PMC4111509 (PLoS ONE, 2014).

Holding throughout (assay): purified protein
Data set [1] has as its system C[S+](CC[C@H](N)C(=O)O)C[C@H]1O[C@@H](n2cnc3c(N)ncnc32)[C@H](O)[C@@H]1O. To be noted: norbelladine as saturated substrate, glycine pH 8.8, 5 mM MgCl2, 37°C, Pfs nucleosidase added to remove SAH.
The test system of data set [2] is Oc1ccc(CCNCc2ccc(O)c(O)c2)cc1. Conditions: AdoMet co-substrate, glycine pH 8.8, 5 mM MgCl2, 37°C, Pfs nucleosidase added to remove SAH.
Data set [3] deals with CN(CCc1ccc(O)cc1)Cc1ccc(O)c(O)c1. To be noted: AdoMet co-substrate, glycine pH 8.8, 5 mM MgCl2, 37°C, Pfs nucleosidase added to remove SAH.

For orientation: Km means the substrate concentration at which the rate is half of its maximum. As usually defined, the kcat is the maximal rate divided by the concentration of active sites. As usually defined, the kcat/Km is the second-order rate constant that governs catalysis at low substrate concentration. For “NpN4OMT1 (Narcissus aff. pseudonarcissus MK-2014)”, in data set [1], the Km was 28.5 ± 1.6 µM, the kcat came out at 0.075 s⁻¹ and the kcat/Km was 2670 M⁻¹ s⁻¹. Moreover, in data set [2], the Michaelis-Menten constant (Km) came to 1.6 ± 0.3 µM, the kcat was determined as 0.0217 s⁻¹ and the specificity constant (kcat/Km) is 13300 M⁻¹ s⁻¹. In data set [3], the Km was found to be 1.9 ± 0.4 µM, the kcat was found to be 0.0433 s⁻¹ and the kcat/Km was determined as 21700 M⁻¹ s⁻¹.
